The chains behind the UniProt entries cited, without tags or fusion partners.
UniProt P41143, whole entry: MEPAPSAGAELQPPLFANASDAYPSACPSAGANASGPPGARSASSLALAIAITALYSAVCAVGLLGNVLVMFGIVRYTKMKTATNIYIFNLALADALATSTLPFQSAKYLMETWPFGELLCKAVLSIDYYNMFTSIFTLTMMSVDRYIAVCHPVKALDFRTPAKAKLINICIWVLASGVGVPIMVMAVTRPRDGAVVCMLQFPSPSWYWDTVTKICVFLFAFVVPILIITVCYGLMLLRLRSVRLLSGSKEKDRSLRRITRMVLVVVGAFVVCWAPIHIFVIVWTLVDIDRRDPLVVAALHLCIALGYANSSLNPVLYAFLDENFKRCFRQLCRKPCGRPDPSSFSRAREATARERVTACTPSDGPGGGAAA

In patent US10435371B2, “Multifunctional aminoquinoline therapeutic agent” (LOHOCLA RESEARCH CORPORATION, priority 2014, dated 2019):

Target: delta opiate receptor (Homo sapiens, UniProt P41143)
Experiment: cAMP accumulation, HEK293 cells transfected with DA receptor, delta opiate receptor and AC7
Format: cell-based
Set-up: expressed in transfected cells; host or cells: HEK293 (ATCC), calcium phosphate transient transfection
Conditions: DOR, BCUKA 10 and 20 μM, DPDPE 1 μM, FIG. 2

With DPDPE [reference compound] the “Effect on cAMP accumulation in the presence of dopamine” value was “significantly increased”.
